In patent US20060189679A1, “C10 cyclopropyl ester substituted taxane compositions” (priority 2005, published 2006):

Tests used:
[1] = test system: DLD-1 resistant colon carcinoma cells (overexpresses p-glycoprotein); assay: In vitro cytotoxic activity (MTT, 72 hr); type: cell-based, human; settings: DLD-1 in vitro
[2] = test system: DLD-1 multi-drug resistant human colon carcinoma xenografts; assay: DLD-1 human tumor xenograft study (DLD e07) in nude mice; settings: DLD1-e07 study
[3] = test system: SW480 human colon carcinoma xenografts; assay: SW480 human tumor xenograft study (e11) in nude mice
[4] = test system: HT-29 human colon tumor xenografts; assay: HT-29 human tumor xenograft studies in nude mice

CC(=O)O[C@@]12CO[C@@H]1C[C@H](O)[C@@]1(C)C(=O)[C@H](OC(=O)C3CC3)C3=C(C)[C@@H](OC(=O)[C@H](O)[C@@H](NC(=O)OCC(C)C)c4ccco4)C[C@@](O)([C@@H](OC(=O)c4ccccc4)C12)C3(C)C (stereo partly drawn) [Compound 3102] was tested, and the “potency compared to both paclitaxel and docetaxel in killing DLD-1 tumor cells” value [1] was “at least 5 fold”, the “# Death NTR (Non-Treatment Related)” value ([2]; 30 mg/kg IV Q4D × 4) was 0 and the “# Death TR (Treatment Related)” value ([2]; 30 mg/kg IV Q4D × 4) was 0. The “# Death NTR (Non-Treatment Related)” value ([2]; 50 mg/kg PO Q4D × 4) was 0, the “# Death TR (Treatment Related)” value ([2]; 50 mg/kg PO Q4D × 4) was 0 and the “# Death NTR (Non-Treatment Related)” value ([2]; 70 mg/kg PO Q4D × 4) was 0. The “# Death TR (Treatment Related)” value ([2]; 70 mg/kg PO Q4D × 4) was 0, the “Max. % BW Loss” value ([2]; 70 mg/kg PO Q4D × 4) was −13.5%; and the “# Death NTR (Non-Treatment Related)” value ([2]; 80 mg/kg PO Q4D × 4) was 0. For the same compound, the “# Death TR (Treatment Related)” value ([2]; 80 mg/kg PO Q4D × 4) was 0, the “# Death NTR (Non-Treatment Related)” value ([3]; 30 mg/kg IV Q4D × 4) was 0 and the “# Death TR (Treatment Related)” value ([3]; 30 mg/kg IV Q4D × 4) was 0. The “Day of Max. % BW Loss” value ([3]; 30 mg/kg IV Q4D × 4) was “Day 22”, the “MDS to 2.0 g ± SEM(n)” value ([3]; 30 mg/kg IV Q4D × 4) was 32.6 ± 4.3 and the “Max. % BW Loss” value ([3]; 30 mg/kg IV Q4D × 4) was −20.1%;. For the same compound, the “# Death NTR (Non-Treatment Related)” value ([3]; 50 mg/kg PO Q4D × 4) was 0, the “# Death TR (Treatment Related)” value ([3]; 50 mg/kg PO Q4D × 4) was 0 and the “Day of Max. % BW Loss” value ([3]; 50 mg/kg PO Q4D × 4) was “Day 15”. For the same compound, the “MDS to 2.0 g ± SEM(n)” value ([3]; 50 mg/kg PO Q4D × 4) was 32.3 ± 3.1, the “Max. % BW Loss” value ([3]; 50 mg/kg PO Q4D × 4) was −19.3%; and the “# Death NTR (Non-Treatment Related)” value ([3]; 70 mg/kg PO Q4D × 4) was 1. For the same compound, the “# Death TR (Treatment Related)” value ([3]; 70 mg/kg PO Q4D × 4) was 0, the “Day of Max. % BW Loss” value ([3]; 70 mg/kg PO Q4D × 4) was “Day 19” and the “MDS to 2.0 g ± SEM(n)” value ([3]; 70 mg/kg PO Q4D × 4) was 29.0 ± 3.8. For the same compound, the “Max. % BW Loss” value ([3]; 70 mg/kg PO Q4D × 4) was −18.1%;, the “# Death NTR (Non-Treatment Related)” value ([3]; 90 mg/kg PO Q4D × 4) was 0 and the “# Death TR (Treatment Related)” value ([3]; 90 mg/kg PO Q4D × 4) was 0. For the same compound, the “Day of Max. % BW Loss” value ([3]; 90 mg/kg PO Q4D × 4) was “Day 15”, the “MDS to 2.0 g ± SEM(n)” value ([3]; 90 mg/kg PO Q4D × 4) was 40.7 ± 1.3 and the “Max. % BW Loss” value ([3]; 90 mg/kg PO Q4D × 4) was −23.6%;. For the same compound, the “# Death NTR” value ([4]; HT29-e51, 30 mg/kg IV Q4D × 4) was 0, the “# Death TR” value ([4]; HT29-e51, 30 mg/kg IV Q4D × 4) was 1 and the “Max. % BW Loss; Day” value ([4]; HT29-e51, 30 mg/kg IV Q4D × 4, Day 19) was −16.2%;. For the same compound, the “Max. % BW Loss; Day” value ([4]; HT29-e51, 30 mg/kg IV Q4D × 4, Day 19, listed as compound 3102) was −16.2%, the “# Death TR” value ([4]; HT29-e51, 30 mg/kg IV Q4D × 4, listed as compound 3102) was “one” and the “# Death NTR” value ([4]; HT29-e76, 30 mg/kg PO Q4D × 4) was 0. For the same compound, the “# Death TR” value ([4]; HT29-e76, 30 mg/kg PO Q4D × 4) was 0, the “#CR” value ([4]; HT29-e76, 30 mg/kg PO Q4D × 4) was 0 and the “#PR” value ([4]; HT29-e76, 30 mg/kg PO Q4D × 4) was 1. The “#SD/PD” value ([4]; HT29-e76, 30 mg/kg PO Q4D × 4) was 0, the “MDS to 1.0 g ± SEM (n)” value ([4]; HT29-e76, 30 mg/kg PO Q4D × 4) was 27.9 ± 1.0 (5) days and the “Max. % BW Loss; Day” value ([4]; HT29-e76, 30 mg/kg PO Q4D × 4, Day 17) was −7.4%;. The “Max. % BW Loss; Day” value ([4]; HT29-e76, 30 mg/kg PO Q4D × 4, Day 17, listed as compound 3102) was −7.4%, the “MDS to 1.0 g ± SEM (n)” value ([4]; HT29-e76, 30 mg/kg PO Q4D × 4, listed as compound 3102) was 27.9 days and the “# Death NTR” value ([4]; HT29-e76, 45 mg/kg PO Q4D × 4) was 0. For the same compound, the “# Death TR” value ([4]; HT29-e76, 45 mg/kg PO Q4D × 4) was 0, the “#CR” value ([4]; HT29-e76, 45 mg/kg PO Q4D × 4) was 1 and the “#PR” value ([4]; HT29-e76, 45 mg/kg PO Q4D × 4) was 3. For the same compound, the “#SD/PD” value ([4]; HT29-e76, 45 mg/kg PO Q4D × 4) was 2, the “Max. % BW Loss; Day” value ([4]; HT29-e76, 45 mg/kg PO Q4D × 4, Day 14) was −12.8%; and the “# Death NTR” value ([4]; HT29-e76, 60 mg/kg PO Q4D × 4) was 0. For the same compound, the “# Death TR” value ([4]; HT29-e76, 60 mg/kg PO Q4D × 4) was 0, the “#CR” value ([4]; HT29-e76, 60 mg/kg PO Q4D × 4) was 0 and the “#PR” value ([4]; HT29-e76, 60 mg/kg PO Q4D × 4) was 5. The “#SD/PD” value ([4]; HT29-e76, 60 mg/kg PO Q4D × 4) was 0, the “Max. % BW Loss; Day” value ([4]; HT29-e76, 60 mg/kg PO Q4D × 4, Day 17) was −17.8%; and the “MDS to 1.0 g ± SEM (n)” value ([4]; HT29-e76, 60 mg/kg PO Q4D × 4, one mouse (n=1)) was 14.0 ± (1) days. The “MDS to 1.0 g ± SEM (n)” value ([4]; HT29-e76, 60 mg/kg PO Q4D × 4, one mouse (n=1), listed as compound 3102) was 14.0 days, the “# Death NTR” value ([4]; HT29-e79, 50 mg/kg PO Q4D × 4) was 0 and the “# Death TR” value ([4]; HT29-e79, 50 mg/kg PO Q4D × 4) was 0. The “#CR” value ([4]; HT29-e79, 50 mg/kg PO Q4D × 4) was 0, the “#PR” value ([4]; HT29-e79, 50 mg/kg PO Q4D × 4) was 4 and the “#SD/PD” value ([4]; HT29-e79, 50 mg/kg PO Q4D × 4) was 2. For the same compound, the “Max. % BW Loss; Day” value ([4]; HT29-e79, 50 mg/kg PO Q4D × 4, Day 10) was −0.9%;, the “#PR” value ([4]; HT29-e79, 50 mg/kg PO Q4D × 4, listed as compound 3102) was 4/6 and the “# Death NTR” value ([4]; HT29-e79, 60 mg/kg PO Q4D × 4) was 0. For the same compound, the “# Death TR” value ([4]; HT29-e79, 60 mg/kg PO Q4D × 4) was 0, the “#CR” value ([4]; HT29-e79, 60 mg/kg PO Q4D × 4) was 0 and the “#PR” value ([4]; HT29-e79, 60 mg/kg PO Q4D × 4) was 6. For the same compound, the “#SD/PD” value ([4]; HT29-e79, 60 mg/kg PO Q4D × 4) was 0, the “Max. % BW Loss; Day” value ([4]; HT29-e79, 60 mg/kg PO Q4D × 4, Day 17) was −6.5%; and the “#PR” value ([4]; HT29-e79, 60 mg/kg PO Q4D × 4, listed as compound 3102) was 6/6.
